The numbers were not newly measured in patent US20130218474A1, “Benchmarks for Normal Cell Identification” (priority 2012, published 2013), which cites them from elsewhere.

The structures appear in SMILES notation. Like-named read-outs stand apart in the source and are kept apart here.

The series has as its system U87MG. Particulars: cited from earlier work.

Regarding `CS(=O)(=O)N1CCN(Cc2cc3nc(-c4cccc5[nH]ncc45)nc(N4CCOCC4)c3s2)CC1` [GDC-0941], the IC50 by setting is: (read-out: IC50 U87MG) 950 nM; (read-out: inhibition of U87MG cancer cell proliferation (IC50)) 950 nM.
